Our source for the outcome and AC50 values is PubChem BioAssay (EPA / NIEHS).

Each structure is given as a SMILES string. Only a part is listed here, and it is no random draw. Results filed as inconclusive are left out. The source made the active and inactive calls. The calls were made as follows, unless noted: active = hit-call score of the fitted dose curve at least 0.9, where 1 is the maximum; inactive = score below 0.9.

Assay [1] is described as follows: ACEA_ER_80hr: ACEA Biosciences xCELLigence Real-Time Cell Analysis on Estrogen Receptor Agonism for Proliferation (AID 2282667; active = hit-call score of the fitted dose curve at least 0.9, where 1 is the maximum). The following applies: T47D proliferation, impedance (xCELLigence), 80 h. Put shortly:
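Cell-growth kinetics were measured by impedance in T47D cells treated continuously with compound (top 100 uM final, 1:4 steps, 8 points). Activity at 80 h was scored as signal gain over the DMSO baseline.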

Assay [2] is described as follows: APR_HepG2_CellCycleArrest_24hr: Apredica 24-hour HepG2 Assay for Cell Cycle Arrest (AID 2282905).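 Also: cell cycle arrest scored as ratio of 2N to 4N nuclear DNA content.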 The following applies: imaging, actives raise or lower the signal. The method, boiled down:
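HepG2, 24 hr dosing, 10-pt 0.39–200 uM in duplicate, 0.5% DMSO. Fixed 3.7% formaldehyde, permeabilized 0.5% Triton X-100, Hoechst 33342 2 ug/mL. Imaged 20x; nuclear DNA content quantified; bidirectional fit vs DMSO.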

The nature of assay [3]: APR_HepG2_NuclearSize_24hr: Apredica 24-hour HepG2 Assay for Nuclear Size (AID 2282907). The following applies: high-content imaging, actives raise or lower the signal. Put shortly: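 HepG2, 24 hr dosing, 10-pt 0.39–200 uM, duplicates, 0.5% DMSO final; 3.7% formaldehyde fix, 0.5% Triton X-100; Hoechst 33342 nuclear stain; ArrayScan HCS, Cell Cycle analysis → nuclear size; bidirectional fit vs DMSO.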

A short description of assay [4]: APR_HepG2_CellLoss_24hr: Apredica 24-hour HepG2 Assay for Cell Loss (AID 2282908).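 Also: fit in both directions so a hit may be cell loss or gain.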 The following applies: high-content imaging. Put shortly:
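10-pt dose, 0.39–200 uM, n=2/plate; DMSO 0.5% v/v final as negative control. Fix 3.7% formaldehyde 30 min RT, permeabilize 0.5% Triton X-100, stain Hoechst 33342 2 ug/mL, image 20x. Nuclear count, bidirectional fit vs DMSO.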

Assay [5] in a line: APR_HepG2_MicrotubuleCSK_24hr: Apredica 24-hour HepG2 Assay for Microtubule CSK Stabilty (AID 2282909). The following applies: HepG2 microtubule cytoskeleton imaging, actives raise or lower the signal. The method, boiled down:
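Human liver HepG2, 24 h dosing, 0.39–200 uM ×10 conc, dup, 0.5% DMSO. 3.7% formaldehyde fix, 0.5% Triton perm, anti-alpha-tubulin (1:200)/Cy5 secondary + Hoechst. HCS imaging, 6 fields/well; gain/loss fit vs DMSO.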

Assay [6] in a line: APR_HepG2_MitoticArrest_24hr: Apredica 24-hour HepG2 Assay for Mitotic Arrest (AID 2282910). The following applies: high-content imaging, actives raise or lower the signal. The method, boiled down: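 HepG2 human liver cells were exposed to compounds at 0.39–200 uM (10 concentrations, duplicate) in 0.5% v/v DMSO for 24 hr, then fixed and immunostained for phospho-histone H3 with Hoechst 33342. Mitotic arrest came from HCS fluorescent imaging, fitted bidirectionally against DMSO.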

Assay [7] in a line: APR_HepG2_MitoMembPot_24hr: Apredica 24-hour HepG2 Assay for Mitochondrial Membrane Potential (AID 2282911). The following applies: imaging, actives raise or lower the signal. Put shortly: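 Human hepatoma HepG2 cultures received ten compound concentrations up to 200 uM for 24 hr. Membrane-potential dye signal, captured by automated fluorescence microscopy, was scored for gain or loss against DMSO controls.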

Assay [8] can be described thus: APR_HepG2_MitoMass_24hr: Apredica 24-hour HepG2 Assay for Mitochondrial Mass (AID 2282912). The following applies: high-content imaging, actives raise or lower the signal. The method, boiled down: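 Mitochondrial mass is read as MitoTracker Red fluorescence intensity from automated imaging, with bidirectional curve fitting relative to DMSO. HepG2 cells received compound (0.39–200 uM, 0.5% DMSO final) for 24 hr and were dye-loaded (250 nM, 30 min) before formaldehyde fixation.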

Assay [9] is described as follows: APR_HepG2_p53Act_24hr: Apredica 24-hour HepG2 Assay for p53 Activation (AID 2282913).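 Also: p53 protein immunofluorescence averaged per cell in HepG2 with Hoechst nuclei.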 The following applies: high-content imaging, actives raise or lower the signal. Put shortly: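 Automated fluorescence imaging quantifies p53 immunostaining in HepG2 cells after a 24 hr exposure (0.39–200 uM, duplicate, 0.5% DMSO). Nuclei are located by Hoechst 33342 staining.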

A short description of assay [10]: APR_HepG2_CellCycleArrest_72hr: Apredica 72-hour HepG2 Assay for Cell Cycle Arrest (AID 2282914). The following applies: high-content imaging, actives raise or lower the signal. The method, boiled down: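 Cell cycle arrest in HepG2 was scored from nuclear DNA content after 72 hr compound treatment (0.39–200 uM). Activity, either gain or loss, was fitted against the DMSO baseline.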

Assay [11] is described as follows: APR_HepG2_CellLoss_72hr: Apredica 72-hour HepG2 Assay for Cell Loss (AID 2282915). The following applies: high-content imaging. The protocol: APR_HepG2_72hr is a cell-based, multiplexed-readout assay that uses HepG2, a human liver cell line, with measurements taken at 72 hours after chemical dosing in a 384-well plate.APR_HepG2_CellLoss_72hr is one of 10 assay component(s) measured or calculated from the APR_HepG2_72hr assay. It is designed to make measurements of cell number, a form of viability reporter, as detected with fluorescence intensity signals by HCS Fluorescent Imaging technology.Data from the assay component APR_HepG2_CellLoss_72hr was analyzed into 1 assay endpoint. This assay endpoint, APR_HepG2_CellLoss_72hr, was analyzed with bidirectional fitting relative to DMSO as the negative control and baseline of activity. […] Furthermore, this assay endpoint can be referred to as a secondary readout, because this assay has produced multiple assay endpoints where this one serves a viability function. […]
Cells were treated with dimethyl sulfoxide (DMSO) as a solvent control at a final concentration of 0.5% v/v or with compounds in DMSO with a resulting final DMSO concentration of 0.5% v/v. […] Six digital images were captured in each well and analyzed using BioApplication software, which was provided with the instrument. All images were analyzed using the Compartmental Analysis and Cell Cycle Analysis BioApplication software from Cellomics. […]

Assay [12] in a line: APR_HepG2_P-H2AX_72hr: Apredica 72-hour HepG2 Assay for H2AX Phosphorylation (AID 2282916).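 Also: phospho-histone H2A.x immunostain intensity per cell marking DNA damage.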 The following applies: imaging, actives raise or lower the signal. Put shortly:
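HepG2; cpd 0.39–200 uM ×10 conc, duplicates; 0.5% DMSO; 72 hr. Fix 3.7% formaldehyde 30 min RT, 0.5% Triton X-100 10 min. Anti-phospho-H2A.x 1:200 + Hoechst 2 ug/mL, 60 min RT; ArrayScan imaging.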

Assay [13] can be described thus: APR_HepG2_MitoMembPot_72hr: Apredica 72-hour HepG2 Assay for Mitochondrial Membrane Potential (AID 2282917). The following applies: imaging, actives raise or lower the signal. Put shortly: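 HepG2 cells exposed 72 h to compounds at 0.39–200 uM (0.5% v/v DMSO, duplicates); MitoTracker Red CMXRos 250 nM loaded 30 min before 3.7% formaldehyde fixation, imaged by HCS fluorescence. Bidirectional fit versus DMSO.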

A short description of assay [14]: APR_HepG2_MitoticArrest_72hr: Apredica 72-hour HepG2 Assay for Mitotic Arrest (AID 2282918). The following applies: high-content imaging, actives raise or lower the signal. Put shortly:
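Mitotic arrest in HepG2 is scored from phospho-histone H3 staining after 72 hr dosing across 0.39–200 uM, with DMSO at 0.5% v/v. Nuclei are identified by Hoechst 33342 and fluorescence intensity is quantified per cell.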

Assay [15] is described as follows: APR_HepG2_MicrotubuleCSK_72hr: Apredica 72-hour HepG2 Assay for Microtubule CSK Stabilty (AID 2282919). The following applies: HepG2 microtubule cytoskeleton, high-content imaging, actives raise or lower the signal. Put shortly:
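HepG2 human liver cells were dosed for 72 h at ten concentrations from 0.39 to 200 uM in duplicate (0.5% v/v DMSO final). Fixed, permeabilized cells were immunostained for alpha-tubulin (Cy5) with a Hoechst counterstain and imaged at 20x.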

Assay [16] can be described thus: APR_HepG2_P-H2AX_24hr: Apredica 24-hour HepG2 Assay for H2AX Phosphorylation (AID 2282920). The following applies: high-content imaging, actives raise or lower the signal. The method, boiled down:
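Signal comes from a FITC-labeled secondary detecting phospho-histone H2A.x in fixed HepG2 cells, quantified by automated imaging at 20x. Dosing ran 24 hr across 0.39–200 uM with 0.5% v/v DMSO.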

Assay [17] can be described thus: APR_HepG2_StressKinase_72hr: Apredica 72-hour HepG2 Assay for Stress Kinase (AID 2282921). The following applies: HepG2 stress kinase (phospho-c-Jun) imaging, actives raise or lower the signal. Put shortly: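 Dose 0.39–200 uM (10 pts, duplicate), 0.5% DMSO; 72 h; fix 3.7% formaldehyde 30 min RT; Triton permeabilize; anti-phospho-c-Jun/Cy3 + Hoechst 60 min RT; image 20x; fit gain/loss vs DMSO.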

Assay [18] in a line: APR_HepG2_StressKinase_24hr: Apredica 24-hour HepG2 Assay for Stress Kinase (AID 2282922). The following applies: HepG2 stress kinase (phospho-c-Jun) imaging, actives raise or lower the signal. Put shortly: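 HepG2 cells exposed 24 hr to compound at 0.39–200 uM (10 concentrations, duplicate), 0.5% v/v DMSO final. Fixed in 3.7% formaldehyde, permeabilized with Triton X-100, immunolabeled for phospho-c-Jun with Hoechst 33342; HCS fluorescence imaging, bidirectional fit versus DMSO.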

A short description of assay [19]: APR_HepG2_p53Act_72hr: Apredica 72-hour HepG2 Assay for p53 Activation (AID 2282923).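 Also: average cellular p53 protein immunofluorescence intensity in HepG2 cells.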 The following applies: high-content imaging, actives raise or lower the signal. Put shortly:
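10-pt conc. 0.39–200 uM, duplicate, 0.5% DMSO; 72 hr exposure; 3.7% formaldehyde fix, 0.5% Triton perm; sheep anti-p53/Cy5 + Hoechst; ArrayScan 20x, 6 images/well; gain/loss fit vs DMSO.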

Assay [20] in a line: APR_HepG2_MitoMass_72hr: Apredica 72-hour HepG2 Assay for Mitochondrial Mass (AID 2282924).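 Also: MitoTracker Red CMXRos stain intensity per cell imaged as mitochondrial mass.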 The following applies: high-content imaging, actives raise or lower the signal. Put shortly: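 HepG2 cells were exposed for 72 hr to compounds at 0.39–200 uM (ten concentrations, duplicate, 0.5% v/v DMSO final). Live cells were stained with 250 nM MitoTracker Red CMXRos for 30 min, then fixed in 3.7% formaldehyde and imaged by HCS fluorescence.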

In the case of `CC(C)OP(OC(C)C)OC(C)C`, in [1], the result was inactive.
The same measure, in the same setting: under `ClCCNCCCl` stands “inactive”.
Still for that read-out and setting: under `ClCCOP(OCCCl)OCCCl` stands “inactive”.
For orientation: AC50 means the concentration at which the activity in the assay is half-maximal. In the case of `O=[N+]([O-])c1ccccc1[N+](=O)[O-]`, the call in assay [2], in [7], in [13], in [15], in assay [18] and in assay [20] was inactive. In addition, the AC50 is active: 90.1 µM in assay [3]; active: 66.4 µM in assay [4]; active: 60.7 µM in assay [5]; active: 60.7 µM in [6]; active: 81.6 µM in [8]; active: 34.8 µM in assay [9]. For the same molecule, the AC50 in assay [10] was active: 72.3 µM; in assay [11], active: 58.9 µM; in assay [12], active: 65.6 µM; in [14], active: 59.8 µM; in assay [16] it was active: 56.8 µM; in [17], active: 65.9 µM. The AC50 in assay [19] was active: 44.1 µM.
